Patent US11129827B2 (priority 2017, dated 2021)

Amino acid sequences for entries named in this document (tags omitted).
UniProt O00519, whole entry, looked up: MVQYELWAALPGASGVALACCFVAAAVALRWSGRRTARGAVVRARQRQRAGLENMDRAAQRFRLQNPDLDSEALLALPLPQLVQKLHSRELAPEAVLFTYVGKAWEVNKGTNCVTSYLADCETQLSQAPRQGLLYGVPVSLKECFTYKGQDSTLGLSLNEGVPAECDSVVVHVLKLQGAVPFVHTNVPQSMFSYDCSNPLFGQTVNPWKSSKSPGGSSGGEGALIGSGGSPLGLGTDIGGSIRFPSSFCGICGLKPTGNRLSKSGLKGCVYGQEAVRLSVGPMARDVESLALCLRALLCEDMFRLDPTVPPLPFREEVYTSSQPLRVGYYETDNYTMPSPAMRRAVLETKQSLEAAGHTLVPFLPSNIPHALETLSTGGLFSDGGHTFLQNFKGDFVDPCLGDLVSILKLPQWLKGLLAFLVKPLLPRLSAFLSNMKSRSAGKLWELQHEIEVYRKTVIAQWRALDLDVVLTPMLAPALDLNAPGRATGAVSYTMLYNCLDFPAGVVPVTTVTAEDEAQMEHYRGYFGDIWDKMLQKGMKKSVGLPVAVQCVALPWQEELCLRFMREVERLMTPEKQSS
UniProt O35678, whole entry, looked up: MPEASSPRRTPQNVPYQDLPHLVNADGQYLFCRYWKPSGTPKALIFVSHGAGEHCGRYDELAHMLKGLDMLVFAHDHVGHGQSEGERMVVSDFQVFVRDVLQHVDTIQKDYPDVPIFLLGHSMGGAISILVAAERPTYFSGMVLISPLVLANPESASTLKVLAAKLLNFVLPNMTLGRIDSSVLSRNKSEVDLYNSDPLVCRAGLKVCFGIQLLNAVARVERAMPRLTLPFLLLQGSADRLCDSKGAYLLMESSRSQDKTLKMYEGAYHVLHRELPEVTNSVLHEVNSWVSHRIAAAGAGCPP
UniProt O08914, whole entry, looked up: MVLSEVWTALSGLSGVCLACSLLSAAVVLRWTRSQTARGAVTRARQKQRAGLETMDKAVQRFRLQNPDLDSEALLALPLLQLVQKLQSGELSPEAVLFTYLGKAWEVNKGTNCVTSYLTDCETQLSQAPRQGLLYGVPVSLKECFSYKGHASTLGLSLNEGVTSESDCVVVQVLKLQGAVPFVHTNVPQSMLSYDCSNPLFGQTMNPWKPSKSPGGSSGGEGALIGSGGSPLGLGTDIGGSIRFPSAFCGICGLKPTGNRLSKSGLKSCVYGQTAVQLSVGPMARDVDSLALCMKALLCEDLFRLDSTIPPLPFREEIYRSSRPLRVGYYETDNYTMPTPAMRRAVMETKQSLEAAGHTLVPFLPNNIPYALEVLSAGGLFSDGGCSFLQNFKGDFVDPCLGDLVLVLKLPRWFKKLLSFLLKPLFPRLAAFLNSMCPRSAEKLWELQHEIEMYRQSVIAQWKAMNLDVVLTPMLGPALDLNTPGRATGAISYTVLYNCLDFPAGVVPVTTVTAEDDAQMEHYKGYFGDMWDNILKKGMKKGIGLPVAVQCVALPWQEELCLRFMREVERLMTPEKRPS
UniProt Q99685, whole entry, looked up: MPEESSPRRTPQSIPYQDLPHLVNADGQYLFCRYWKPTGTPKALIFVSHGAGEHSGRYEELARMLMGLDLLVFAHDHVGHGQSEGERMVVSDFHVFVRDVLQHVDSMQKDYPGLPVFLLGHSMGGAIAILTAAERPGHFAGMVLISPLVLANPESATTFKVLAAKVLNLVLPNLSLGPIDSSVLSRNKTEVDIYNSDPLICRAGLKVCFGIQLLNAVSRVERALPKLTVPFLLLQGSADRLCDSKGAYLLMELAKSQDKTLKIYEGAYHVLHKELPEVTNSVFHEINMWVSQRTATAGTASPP

Legend:
[1] = molecular target: FAAH (Homo sapiens (Human), UniProt O00519); conditions: human prefrontal cortex or cell membrane fractions
[2] = molecular target: MAGL (Mus musculus (Mouse), UniProt O35678); experiment: Mouse brain proteomes from inhibitor treated mice (oral gavage, ABPP analysis); format: in vivo; conditions: 5 mg/kg oral gavage, C57Bl/6J mouse brain, 4 h following administration
[3] = molecular target: FAAH (Mus musculus (Mouse), UniProt O08914); experiment: as above; format: in vivo; conditions: 5 mg/kg oral gavage, C57Bl/6J mouse brain, 4 h following administration
[4] = molecular target: MAGL (Homo sapiens (Human), UniProt Q99685); conditions: human prefrontal cortex or cell membrane fractions

`CC(C)Oc1cc(CN2CCN(C(=O)Oc3cncc(C(N)=O)c3)CC2)ccc1Cl` was tested. Which “FAAH (human) % inh. 1 μM” value ([1]; 1 μM) did it give?
Its value is “A (% inhibition is greater than or equal to 75%)”.

And the IC50 ([1]; read-out: FAAH (human) IC50)?
Its IC50 is under 100 nM.

What about the “MAGL (mouse) % inh. 5 mg/kg” value [2] of the same compound?
The value was “B (% inhibition is greater than or equal to 50% and less than 75%)”.

What about the “FAAH (mouse) % inh. 5 mg/kg” value [3] of the same compound?
Its value is “A (% inhibition is greater than or equal to 75%)”.

What about the “MAGL (human) % inh. 1 μM” value ([4]; 1 μM) of the same compound?
Its value is “A (% inhibition is greater than or equal to 75%)”.

What about the IC50 ([4]; read-out: MAGL (human) IC50) of the same compound?
The IC50 was under 100 nM.
